Test results published in ChEMBL document CHEMBL4308906, “Design and synthesis of selective CYP1B1 inhibitor via dearomatization of α-naphthoflavone” (Bioorg Med Chem, 2019).

Target: T1, Cytochrome P450 1B1 (Homo sapiens, UniProt Q16678)
T1 sequence (Q16678 whole entry): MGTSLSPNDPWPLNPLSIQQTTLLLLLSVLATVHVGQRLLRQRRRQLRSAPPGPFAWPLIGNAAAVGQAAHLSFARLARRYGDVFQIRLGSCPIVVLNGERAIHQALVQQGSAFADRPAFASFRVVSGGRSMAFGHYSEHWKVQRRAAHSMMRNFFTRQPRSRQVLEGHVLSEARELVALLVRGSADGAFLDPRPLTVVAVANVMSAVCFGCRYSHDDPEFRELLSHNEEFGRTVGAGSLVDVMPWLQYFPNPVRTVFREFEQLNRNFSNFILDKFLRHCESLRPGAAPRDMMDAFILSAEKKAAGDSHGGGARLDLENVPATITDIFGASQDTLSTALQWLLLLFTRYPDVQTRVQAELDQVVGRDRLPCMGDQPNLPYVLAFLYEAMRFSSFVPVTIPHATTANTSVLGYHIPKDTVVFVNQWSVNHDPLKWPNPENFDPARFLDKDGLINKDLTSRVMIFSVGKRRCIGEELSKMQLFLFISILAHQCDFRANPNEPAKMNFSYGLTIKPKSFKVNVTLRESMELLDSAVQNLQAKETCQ
Test: Binding affinity to human C-terminal 4His-tagged CYP1B1 expressed in Escherichia coli DH5alpha assessed as spectral dissociation constant by spectrophotometric analysis
Details: read-out: Ks

Q: Which Kd does the source give for O=c1cc(-c2ccccc2)oc2c1ccc1ccccc12 [ALPHA-NAPHTHOFLAVONE] here?
A: 700 nM
